Source: PubChem
esBAF inh – blocks esBAF chromatin remodeling in mouse ES cells; Bmi1-luciferase knock-in reporter, 24 h; 100% = twice the neutral-well signal; reporter increase, % at 12.5 µM; 350,000 tested, 2% active; AID 602393; in the data active = activation above about 40%; inconclusive = no clear call, values can overlap the other calls;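 note: a rise in the Bmi1 reporter signal indicates esBAF inhibition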
Yeast UUG start – alters start codon recognition fidelity in yeast. S. cerevisiae UUG-firefly luciferase reporter, luminescence/redox ratio. activity score, % at 18.7 µM. 0.13% of 350,000 active. AID 602363;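 active = replicate mean at a twofold rise or more, about +100% in these data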;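 also: firefly luciferase made from a UUG start codon reports start codon fidelity; reporter light over untreated wells divided by growth signal over untreated wells; some hits fall short of that in this replicate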
MITF act – increases MITF-driven TRPM1 promoter luciferase signal; activation, % at 12.5 µM; 300,000 tested, 0.75% active; AID 588334; SK-MEL-5 TRPM1-promoter luciferase, 24 h; % of positive control, neutral wells = 0;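 active = mean activation of at least 80% with every replicate also reaching 80%; inconclusive = mean reaches 80% but some replicate falls short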
Wnt act – activates Wnt/beta-catenin signaling in a reporter cell assay; activator, plate reader; activation, % at 9.35 µM; 300,000 tested, 1.2% active; in the data active = activation above about 30%, passing the limit was not always enough; inconclusive = no clear call, values can overlap the other calls
miR122 inh – inhibitors of miR-122 in Huh7 cells. Huh7 miR-122 Renilla luciferase sensor, 48 h; neutral wells = 0, positive control = 100. activation (reporter increase), % at 12.5 µM. 340,000 tested, 0.3% active. AID 602342;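 active = mean replicate activation score at least 90 and every replicate individually at or above 90; inconclusive = only one of the two criteria met; inactive = neither criterion met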;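 note: higher luciferase means less miR-122 activity so hits act as miR-122 inhibitors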
PglD DTNB – PglD (C. jejuni) enzyme inhibition; purified PglD enzyme, DTNB colorimetric CoA detection; inhibition, % at 12.5 µM; 360,000 tested, 0.098% active; AID 602405; in the data active = inhibition above about 16%, passing the limit was not always enough; inconclusive = no clear call, values can overlap the other calls
esBAF Ring1 qPCR – confirmation of esBAF inhibitors: Ring1 de-repression in mouse ESCs | shares compounds with esBAF inh | mouse ESC E14, Ring1 mRNA RT-qPCR fold change | fold change at 33 µM | 550 tested, under 10 active;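 active = Ring1 gene expression raised more than 2-fold over untreated cells in both replicates at either tested dose; inconclusive = only one replicate above 2-fold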;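 note: Ring1 transcript normalised to actin housekeeping signal by TaqMan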
Fgf4 repress – esBAF inhibition confirmed by Fgf4 repression; shares compounds with esBAF inh; mouse ESC E14, Fgf4 mRNA qPCR fold change; hits give low values; Fgf4 expression fold change at 33 µM; 550 tested, 4% active; AID 743177;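 active = Fgf4 expression under 0.8 fold of control in both repeat measurements at one or both tested doses; inconclusive = under 0.8 fold in just a single repeat measurement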;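 note: Fgf4 transcript normalised to actin in duplex TaqMan qPCR; cells exposed to compound for 24 h before lysis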
Bmi1 derepress – esBAF inhibition confirmed by Bmi1 de-repression | shares compounds with esBAF inh | mouse ESE14 ES cells, Bmi1 mRNA qPCR fold; hits give high values | fold change at 33 µM | 550 tested, under 10 active | AID 743180;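 active = Bmi1 expression fold change above 6 at either tested concentration, seen in replicate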;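 note: higher fold means more Bmi1 de-repression and stronger esBAF inhibition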
A549 cytotox – kills or reduces viability of A549 cells | A549 cytotoxicity, plate reader | cell viability change % (negative = cytotoxic), % at 25 µM, hits read low | shares compounds with esBAF inh | AID 743188 | 550 tested, under 10 active; call rule not given here
HepG2 cytotox SP – kills or reduces viability of HepG2 cells. shares compounds with esBAF inh. HepG2 cytotoxicity, plate reader; hits give low values. activity change, negative = inhibition, % at 25 µM. 550 tested, 4% active; in the data active = activity change below about -50%
HEK293 tox SP – kills or reduces viability of HEK293 cells | activity change, negative = inhibition, % at 25 µM, hits read low | 550 tested, 3% active | shares compounds with esBAF inh | AID 743190 | HEK293 cytotoxicity, plate reader; in the data active = activity change below about -38%, passing the limit was not always enough
Large screens that a line does not name were inactive (follow-up assays come after a bar, where they were run). This is a sample that favours compounds with a hit; in the whole collection about 2.8% have one here.

C[C@H]1CN([C@@H](C)CO)C(=O)CCCn2cc(nn2)CO[C@H]1CN(C)S(=O)(=O)c1ccc(C#N)cc1	none (no result: MITF act, Wnt act)
COc1cc(/C=C2/C(=N)N3N=C(CC(=O)N4CCOCC4)SC3=NC2=O)ccc1OCc1ccc(F)cc1	esBAF inh 48 | esBAF Ring1 qPCR inactive | Fgf4 repress inactive | Bmi1 derepress inactive | A549 cytotox inactive | HepG2 cytotox SP inactive | HEK293 tox SP inactive
COc1cc(/C=C2/C(=N)N3N=C(CC(=O)N4CCOCC4)SC3=NC2=O)ccc1OCc1ccccc1F	none (no result: Wnt act)
COc1cc(CN(C(=O)c2cc3ccccc3oc2=O)C2CCS(=O)(=O)C2)cc(OC)c1OC (centres undefined)	none (no result: miR122 inh)
O=C(c1cc2ccccc2oc1=O)N(Cc1cccs1)C1CCS(=O)(=O)C1 (centres undefined)	esBAF inh 70 (no result: Wnt act) | esBAF Ring1 qPCR inactive | Fgf4 repress inconclusive | Bmi1 derepress inactive | A549 cytotox inactive | HepG2 cytotox SP inactive | HEK293 tox SP inactive
O=C(O)c1ccc2c(c1)C(=O)N(CCc1c[nH]c3ccccc13)C2=O	esBAF inh 47 | esBAF Ring1 qPCR inactive | Fgf4 repress inactive | Bmi1 derepress inactive | A549 cytotox inactive | HepG2 cytotox SP inactive | HEK293 tox SP inactive
CC(=O)N1[C@@H]2c3ccc(-c4ccccc4)c(=O)n3C[C@@H]2[C@@H](CO)[C@@H]1C(=O)NC1CCC1	none (no result: Yeast UUG start, MITF act, Wnt act)
Cc1ccc(NC(=O)C2CCCN(c3ncccn3)C2)cc1F (centres undefined)	esBAF inh 73, MITF act 134 (no result: Wnt act) | esBAF Ring1 qPCR inactive | Fgf4 repress inconclusive | Bmi1 derepress inactive | A549 cytotox inactive | HepG2 cytotox SP inactive | HEK293 tox SP inactive
Cc1ccc(NC(=O)C2CCCN(C(=O)c3ccc(Cl)cc3)C2)cc1C (centres undefined)	esBAF inh 69 (no result: miR122 inh) | esBAF Ring1 qPCR inactive | Fgf4 repress inactive | Bmi1 derepress inactive | A549 cytotox inactive | HepG2 cytotox SP inactive | HEK293 tox SP inactive
COc1ccccc1CNC(=O)C[C@H]1CC[C@H](NC(=O)CC2CC2)[C@H](CO)O1	none (no result: MITF act, Wnt act, miR122 inh)
Nc1cc2c3ccccc3ccc2c2ccccc12	esBAF inh 79 (no result: Yeast UUG start, PglD DTNB) | esBAF Ring1 qPCR 0.64 | Fgf4 repress 0.48 | Bmi1 derepress 37 | A549 cytotox inactive | HepG2 cytotox SP inactive | HEK293 tox SP -119
Nc1ccc2ccccc2c1[N+](=O)[O-]	none (no result: Yeast UUG start, PglD DTNB)
Cc1nc2c(sc3nc4c(cc32)COC(C)(C)C4)c(=O)n1Cc1ccccc1	esBAF inh 64 (no result: Wnt act) | esBAF Ring1 qPCR inactive | Fgf4 repress inactive | Bmi1 derepress inactive | A549 cytotox inactive | HepG2 cytotox SP inactive | HEK293 tox SP inactive
Cc1csc(-c2ccc3cc(Cl)cc(Cl)c3n2)n1	esBAF inh 71 (no result: MITF act) | esBAF Ring1 qPCR inactive | Fgf4 repress inactive | Bmi1 derepress inactive | A549 cytotox inactive | HepG2 cytotox SP inactive | HEK293 tox SP inactive
COc1ccc(-c2nc(C#N)c(NC(C)C)o2)cc1	esBAF inh 67 (no result: miR122 inh) | esBAF Ring1 qPCR inactive | Fgf4 repress inactive | Bmi1 derepress inactive | A549 cytotox inactive | HepG2 cytotox SP inactive | HEK293 tox SP inactive
COc1ccc(Cc2nc3ccc(C(=O)NCCCSC)cc3o2)cc1OC	esBAF inh 77 (no result: MITF act) | esBAF Ring1 qPCR inactive | Fgf4 repress inactive | Bmi1 derepress inactive | A549 cytotox inactive | HepG2 cytotox SP inactive | HEK293 tox SP inactive
COc1cc(OC)c2c(-c3ccccc3)cc(C3CCCCC3)nc2c1	none
c1ccc2cc(C3CCCCC3)ncc2c1	esBAF inh 76, MITF act 99 (no result: miR122 inh) | esBAF Ring1 qPCR inactive | Fgf4 repress inconclusive | Bmi1 derepress inactive | A549 cytotox inactive | HepG2 cytotox SP inactive | HEK293 tox SP inactive
COc1ccccc1N1C(=O)S/C(=C\c2ccc(C)s2)C1=O	esBAF inh 73 (no result: MITF act) | esBAF Ring1 qPCR inactive | Fgf4 repress inconclusive | Bmi1 derepress inactive | A549 cytotox inactive | HepG2 cytotox SP inactive | HEK293 tox SP inactive
C[C@@H]1CCCCO[C@@H](CN(C)S(C)(=O)=O)[C@H](C)CN([C@H](C)CO)C(=O)c2cc(NS(=O)(=O)c3ccccc3)ccc2O1	none (no result: MITF act, Wnt act)
COc1ccc(NC(=O)N(C)C[C@H]2Oc3ccc(NC(=O)CCC(F)(F)F)cc3C(=O)N([C@H](C)CO)C[C@H]2C)cc1	none (no result: MITF act, Wnt act)
O=C(Nc1cccc(F)c1)c1c(O)c2ccccc2[nH]c1=O	esBAF inh 80 (no result: MITF act) | esBAF Ring1 qPCR inactive | Fgf4 repress inactive | Bmi1 derepress inactive | A549 cytotox inactive | HepG2 cytotox SP inactive | HEK293 tox SP inactive
O=C(N/N=C/c1cccc(F)c1)c1c(O)c2ccccc2[nH]c1=O	none (no result: esBAF inh, Yeast UUG start, miR122 inh, PglD DTNB)
CSc1cccc(NC(=O)N2CCc3ccc(NC(=O)c4ccccn4)cc3C2)c1	esBAF inh 60 (no result: miR122 inh) | esBAF Ring1 qPCR inactive | Fgf4 repress inactive | Bmi1 derepress inactive | A549 cytotox inactive | HepG2 cytotox SP inactive | HEK293 tox SP inactive
Cn1ccc2c(-c3ccc(C(=O)O)cc3)cc3c(c21)C1CCC3C1 (centres undefined)	esBAF inh 66 (no result: MITF act) | esBAF Ring1 qPCR inactive | Fgf4 repress inactive | Bmi1 derepress inactive | A549 cytotox inactive | HepG2 cytotox SP inactive | HEK293 tox SP inactive
O=c1c2ccccc2sc2ccc(Cl)cc12	none (no result: esBAF inh, Yeast UUG start, Wnt act, miR122 inh, PglD DTNB)
O=c1c2ccccc2sc2ccccc12	esBAF inh 57 | esBAF Ring1 qPCR inactive | Fgf4 repress inactive | Bmi1 derepress inactive | A549 cytotox inactive | HepG2 cytotox SP inactive | HEK293 tox SP inactive
c1ccc(-c2nc3c(ccc4ccccc43)[nH]2)nc1	esBAF inh 100 (no result: Yeast UUG start, Wnt act, PglD DTNB) | esBAF Ring1 qPCR inactive | Fgf4 repress inactive | Bmi1 derepress inactive | A549 cytotox inactive | HepG2 cytotox SP inactive | HEK293 tox SP inactive
C[C@@H]1CN([C@@H](C)CO)C(=O)c2cc(N(C)C)ccc2O[C@@H](C)CCCCO[C@H]1CN(C)C(=O)CCC(F)(F)F	none (no result: MITF act, Wnt act)
CC(=O)Nc1ccc(CNc2nc3cc(-c4ccsc4)sc3c(=O)n2C)cc1	esBAF inh 78 (no result: Yeast UUG start, MITF act, Wnt act) | esBAF Ring1 qPCR inactive | Fgf4 repress inactive | Bmi1 derepress inactive | A549 cytotox inactive | HepG2 cytotox SP inactive | HEK293 tox SP inactive
